Reference: PMC8569185 (Frontiers in Pharmacology, 2021)

Amino acid sequences for entries named in this document (tags omitted). A change or cut given only in a name is not applied to a line headed by its entry.
UniProt P33534: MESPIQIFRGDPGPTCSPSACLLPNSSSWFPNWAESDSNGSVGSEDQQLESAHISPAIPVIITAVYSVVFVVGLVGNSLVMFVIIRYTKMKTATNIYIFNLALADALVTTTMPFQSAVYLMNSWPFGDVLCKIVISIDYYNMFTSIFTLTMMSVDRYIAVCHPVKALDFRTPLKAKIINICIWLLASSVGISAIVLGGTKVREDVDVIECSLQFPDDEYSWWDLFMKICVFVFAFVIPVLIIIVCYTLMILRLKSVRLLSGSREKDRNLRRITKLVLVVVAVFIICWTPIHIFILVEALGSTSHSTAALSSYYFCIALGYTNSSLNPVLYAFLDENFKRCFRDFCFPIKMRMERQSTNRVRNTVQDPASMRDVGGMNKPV

Tests used:
mouse KOR [1] = molecular target: T1, mouse KOR (Mus musculus, UniProt P33534); settings: read-out: Affinity Ki ± SD; cited from earlier work
mouse KOR [2] = molecular target: T1, mouse KOR; format: cell-based; set-up: expressed in transfected cells; host or cells: HEK293, transient co-transfection; settings: 10 µM, positive control used as reference value
mouse KOR [3] = molecular target: T1, mouse KOR; set-up: method as in Muratspahić et al., 2021; settings: ref Muratspahić et al., 2021, cited from earlier work

## Dyn A 1–13 amide trifluoroacetate salt (YGGFLRRIRPKLK; Dynorphin A(1-13) C-terminal amide, trifluoroacetate salt; UniProt P01213 207-219, looked up, fragment)
Mouse KOR [1]
  Ki: 0.031 ± 0.003 nM
Mouse KOR [2]
  extent of β-arrestin-2 recruitment: 100%
Mouse KOR [3]; cAMP inhibition at KOR, read-out: Potency cAMP EC50 ± SD
  EC50: 2.8 ± 0.7 nM
Mouse KOR [3]; reference set to 100%
  Efficacy cAMP Emax ± SD: 100.0 ± 0.0%
